5 compounds from ChEMBL document CHEMBL2384966, “Probes for narcotic receptor mediated phenomena. 47. Novel C4a- and N-substituted-1,2,3,4,4a,9a-hexahydrobenzofuro[2,3-c]pyridin-6-ols” (Bioorg Med Chem, 2013) can be followed below.

Protein sequences, listed by entry. Tags and fused reporters are not part of them. Lines headed by an entry give the natural chain unless they say otherwise; changes in a name come on top.
UniProt P35372, whole entry: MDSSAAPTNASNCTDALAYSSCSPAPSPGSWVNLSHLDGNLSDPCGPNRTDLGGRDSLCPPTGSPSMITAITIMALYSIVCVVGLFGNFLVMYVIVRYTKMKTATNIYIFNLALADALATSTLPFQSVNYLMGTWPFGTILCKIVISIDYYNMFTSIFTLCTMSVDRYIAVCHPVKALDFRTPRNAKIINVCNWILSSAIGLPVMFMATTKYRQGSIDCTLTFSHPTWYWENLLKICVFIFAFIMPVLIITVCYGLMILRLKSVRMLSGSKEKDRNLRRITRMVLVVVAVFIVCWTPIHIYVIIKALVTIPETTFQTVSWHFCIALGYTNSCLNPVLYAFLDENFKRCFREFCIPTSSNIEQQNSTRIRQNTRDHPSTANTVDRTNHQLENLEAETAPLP
UniProt P41145: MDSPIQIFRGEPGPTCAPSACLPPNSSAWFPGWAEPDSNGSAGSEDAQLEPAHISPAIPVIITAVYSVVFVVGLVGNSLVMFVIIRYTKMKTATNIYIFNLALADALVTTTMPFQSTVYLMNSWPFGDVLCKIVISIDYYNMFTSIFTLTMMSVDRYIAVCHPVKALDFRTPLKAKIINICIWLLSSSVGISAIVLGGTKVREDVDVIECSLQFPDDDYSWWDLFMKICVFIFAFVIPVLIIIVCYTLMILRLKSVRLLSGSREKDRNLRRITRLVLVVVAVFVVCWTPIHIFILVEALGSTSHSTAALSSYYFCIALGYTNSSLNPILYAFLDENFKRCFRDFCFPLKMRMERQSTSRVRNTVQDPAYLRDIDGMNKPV

Assay [1] concerns the target Mu-type opioid receptor (Homo sapiens, UniProt P35372). Put plainly: Partial agonist activity at human recombinant mu opioid receptor expressed in CHO cell membranes assessed as stimulation of [35S]GTPgammaS binding after 3 hrs by liquid scintillation counting analysis relative to DAMGO. In kind it is functional, cell-based. For orientation: Binding of GTPγS marks nucleotide exchange on a G protein.

In assay [2] the target is Kappa-type opioid receptor (Homo sapiens, UniProt P41145). The assay can be described thus: Partial agonist activity at human recombinant kappa opioid receptor expressed in CHO cell membranes assessed as stimulation of [35S]GTPgammaS binding after 3 hrs by liquid scintillation counting analysis relative to (-)-U50,488. The class given is functional, cell-based.

The Emax is the maximal effect, on the per cent scale that the assay sets. Take `Oc1ccc2c(c1)[C@]1(CCc3ccccc3)CCN(CCc3ccccc3)C[C@@H]1O2` (relative stereo): the Emax in assay [1] came out at 75%.

For `Oc1ccc2c(c1)[C@]1(CCc3ccccc3)CCN(CCc3ccccc3F)C[C@@H]1O2` (relative stereo), the Emax in assay [1] is 82%.

For the compound `Oc1ccc2c(c1)[C@]1(CCc3ccccc3)CCN(CC3CC3)C[C@@H]1O2` (relative stereo), the Emax in assay [2] was 18%.

In the case of `Oc1ccc2c(c1)[C@]1(CCc3ccccc3)CCN(CCc3ccc(F)cc3)C[C@@H]1O2` (relative stereo), the maximal response (Emax) in assay [1] turned out to be 43%.

As for `Oc1ccc2c(c1)[C@]1(CCc3ccccc3)CCN(CCc3ccc(C(F)(F)F)cc3)C[C@@H]1O2` (relative stereo), the maximal response (Emax) in assay [1] was 60%.
